The numbers were not newly measured in PMC4217481 (Nuclear medicine and biology, 2013), which cites them from elsewhere.

This data set deals with bone. Particulars: mouse, in vivo.

For ^18F-FDG, the bone uptake is 2.49 %ID/g.
